Test: Thermal stability by thermogravimetric analysis (TGA)

With arginine-glycine-aspartic acid [RGD] as the substance, how does the “thermal degradation / significant mass loss temperature” value read?
The value was 181 °C.

Source: US20230399457A1, “Bioactive Synthetic Copolymer, Bioactive Macromolecule and Related Methods Thereof” (Agency for Science, Technology and Research, priority 2020, published 2023)
